# In PMC6418785, “Presenting Precision Glycomacromolecules on Gold Nanoparticles for Increased Lectin Binding” (Polymers, 2017):
# Target: T1, Concanavalin A (Con A) (Canavalia ensiformis, UniProt P02866)
# T1 construct: purchased LKT Laboratories (Biomol, Hamburg, Germany)
# Assay: SPR inhibition competition assay, Con A binding to mannosylated sensor chip
# Settings: 100 nM Con A, LBB, SA sensor chip used for 1a and 3a (footnote 1)
# Experimental: As sensor chip a SA (streptavidin) chip from GE Healthcare Life Sciences was used. The positive (α-D-Mannose-PAA-biotin, flow cell 2) and negative (α-D-Galactose-PAA-biotin, flow cell 1) control for Con A binding were immobilized on the sensor chip surface using the standard biotin streptavidin capture method as adapted from previously established protocols. Therefore, a 4.2 µg/mL solution of both polymers was prepared in HBS-P+ buffer (pH 7.4, GE Healthcare, Uppsala, Sweden). The same buffer was used as running buffer in a flow rate of 10 µL/min. For immobilization, the immobilization wizard was used with a specified contact time of 420 s. Sodium chloride, sodium hydroxide and isopropanol solutions were prepared as specified by the manufacturer. […]
# SPR inhibition competition studies were performed using the wizard template kinetics/affinity with contact times of 105 s and dissociation times of 180 s. […] Then it was filtrated (Acrodisc® 32 mm syringe filter with a 0.1 µm Supor® membrane from Pall Corporation, Newquay, UK) and the concentration was determined spectrophotometrically. […]
# For the experiment Con A and sample solutions were mixed in a 1:1 ratio to give half of the prepared concentrations. […] The relative response values of the Con A solutions incubated with the respective sample in serial dilutions were referred to Con A and calculated for relative binding in %. […]
substance,measurement,value
"Man(2,4,6,8,10)-11-Gly(1)-EDS(3,5,7,9)-Cys(11)-N-ethylmaleimide [glycomacromolecule 3a]",IC50,155 ± 78 nM
